Assay results published in patent US20120189566A1, “EXTERNAL PREPARATION CONTAINING PANTETHINE PHOSPHATE ESTER” (DAIICHI FINE CHEMICAL CO., LTD., priority 2009, published 2012).
Where two headings read alike, the source gives them in different places.

Settings: 0.1% (w/v) in 50 mM buffer, 40° C. for 6 months
[1] = pH 4 or lower, or pH 6.5 or higher

Row | Substance | stability (content by HPLC before and after heating) (between pH 5 and 6) | stability (content by HPLC before and after heating) [1]
1 | pantethine-4′,4″-di-α-glucoside | no difference in stability | stable
2 | pantethine-4′-α-glucoside | no difference in stability | clearly degraded
